Only a part is listed here, and it is no random draw. Activity calls are given as the source filed them. Rule as the data show it: active = inhibition above about 26%; inactive = the rest.
Each molecule was assayed on Nicotinate-nucleotide adenylyltransferase NadD (Staphylococcus aureus N315) (assay: inhibitors of S. aureus NadD, primary screen, biochemical, colorimetric, uHTS (AID 602399)). Settings: purified NadD enzyme, colorimetric absorbance read-out; at 20 µM; hits give high values.

SMILES | inhibition
CCC(=O)N(c1ccccc1)C1(COC)CCN(CCn2nnn(CC)c2=O)CC1 | inactive: 1.62%
CCC(=O)N(c1ccccc1)C1(COC)CCN(CCc2cccs2)CC1 | inactive: -6.85%

From PubChem BioAssay AID602399 (Sanford-Burnham Center for Chemical Genomics, 2012)
